The subject of data set [1] is Trypanosoma musculi. The following applies: administration in vivo during the course of infection; cited from earlier work.
Data set [2] deals with Trypanosoma musculi. The following applies: cited from earlier work.
The test system of data set [3] is 3LL-R Lewis lung carcinoma cells. In words: Experimental metastasis inducing capacity on TNF resistant 3LL-R Lewis lung carcinoma cells. The following applies: TNF-α treated mice, 17 days. In kind it is in vivo, mouse (C57bl/6). The method, then: The metastasis-promoting effect of wild type and tip deleted mouse TNF-α was compared by use of the 3LL-R tumorigenic Lewis lung carcinoma cell line (wt and del mTNF-resistant Lewis lung carcinoma) (Remels et al., 1989). Thereto, 8 weeks old female C57bl/6 mice (5 mice/group) (Charles River, Deutschland) were injected intraperitoneally with either PBS (control group) or 5 μg of wild type or tip-deleted mouse TNF-α per mouse, 5 hours prior to the intravenous injection of 2.106 3LL-R cells. This tumor inoculum normally leads to a 100% mortality 25 days after injection of the control group. […] At this time, all mice were killed and the lung weight as well as the amount of cancer cell nodules in the lung was assessed.

For data set [4] the following is noted: in vivo; cited from earlier work.
The subject of data set [5] is uromodulin. As to conditions: cited from earlier work.
For data set [6], the system named is Trypanosoma brucei brucei. In words: In vitro trypanocidal assay, T. brucei brucei. Format: cell-based. The source says: (§1) The Trypanosoma brucei brucei AnTat 1.1 (EATRO 1125) pleomorphic bloodstream form was kindly provided to us by Dr. N. Van Meirvenne of the Institute for Tropical Medecine, Antwerp, Belgium, and the Trypanosoma brucei rhodesiense Trp 11 pleomorphic bloodstream form was kindly provided to us by Dr. E. Bajyana Songa (Dept. Molecular Biology, Free University of Brussels, Belgium)
(§2) Two times 10^6 /ml purified bloodstream forms of Trypanosoma brucei brucei or T. brucei rhodesiense isolated 1 day before the first in vivo maximum peak is reached, were incubated for 5 h in phosphate buffered saline (PBS), 1% glucose, 1% normal mouse serum (incubation medium) at 37° C. with various concentrations of recombinant mTNF-α, recombinant hTNF-α or the TNF-α-derived tip peptides, all in the absence or the presence of anti-tip peptide polyclonal or monoclonal antibodies. After 5 h of incubation, the number of live (=moving) parasites was assessed (counting chamber) and compared the control wells in which only incubation medium was added to the trypanosomes. The spontaneous mortality in the control wells after 5 h was always lower than 10%. All treatments were done in quadruplicate and all reported in vitro trypanolysis experiments were repeated at least 3 times.

In data set [7] the test system is Trypanosoma brucei rhodesiense. In words: In vitro trypanocidal assay, T. brucei rhodesiense. Format: cell-based. The following applies: 5 h.
Excerpt: as §1, §2

The subject of data set [8] is L929 cells. In words: L929 cell killing (cytotoxic/cytolytic/tumoricidal) assay. In kind it is cell-based, mouse. As to conditions: purified recombinant, produced in E. coli; assay not stated. The method, then: L929 fibrosarcoma cells were obtained from the Rega Institute, Leuven, Belgium.
After 18 h of culture at 37° C., viability of the cell cultures was assessed by dye uptake analysis. […] The plates were read spectrophotometrically at 577 nm with a Titertek multiscan MCC340 ELISA Reader (Flow Laboratories, McLean, Va.).

Data set [9] has as its system human melanoma cell line. As to conditions: given 1 hour prior to intravenous inoculation; cited from earlier work.
In data set [10] the test system is murine fibrosarcoma model, lung cancer model and melanoma models. As to conditions: given within 3 days of tumor cell inoculation; cited from earlier work.
In data set [11] the test system is human ovarian cancer xenografts. As to conditions: peritoneal cavity of nude mice; cited from earlier work.

The values below come from patent publication US5891679A, “TNF-alpha muteins and a process for preparing them” (priority 1993, dated 1999).

As to “TNF-α: Tumor necrosis factor-α, also known as cachectin, multifunctional cytokine”, the parasite development result in [1] is recorded as “net increase in parasite development”. Further, the “growth of T. musculi in vitro cultures” value in data set [2] is “inhibited the growth”. Further, the “increase of lung weight and number of nodules” value in data set [3] is on record as “at least 100 ×”. For the same substance, the “effects in experimental animals” value in data set [4] was “hypotension, leukopenia, and local tissue necrosis”. Also, the “lectin-like affinity for uromodulin” value in data set [5] is “has a lectin-like affinity for the glycoprotein uromodulin”.
In the case of “hTNF-α: recombinant human tumor necrosis factor-alpha, produced in E. coli”, the “concentration at which 50% of the animals (parasites) are killed” value in data set [6] (T. brucei brucei, 5 h) amounted to 5000 pg/mL; in data set [7], 5000 pg/mL. Besides, the trypanocidal specific activity in [6] (in vitro trypanocidal assay) is 2×10^5 U/mg of protein. The specific activity in [8] is 2×10^7 units/mg.
“recombinant human TNF-α: recombinant human TNF-α of the cited literature”: the pulmonary metastasis entry in data set [9] is “increase of pulmonary metastasis”. In [10], the formation of metastases result is given as “inhibition of formation of metastases”. Besides, the implantation of xenografts result in [11] was “promoted the implantation of human ovarian cancer xenografts”.
